Out of some 390,000 compounds screened, about 910 (0.23%) were called active. All entries are inconclusive by the source's own rule. Clear calls are listed elsewhere. The call rests on the fitted dose curve; in most records, active means well fitted inhibition curve with a large enough effect; inconclusive means small, poorly fitted or top-dose-only effect; inactive means no such curve, though single readings can be large or run the other way.
target: Ubiquitin carboxyl-terminal hydrolase 1 (Homo sapiens) (UniProt O94782); assay: Inhibitors of USP1/UAF1: Primary Screen; conditions: recombinant USP1/UAF1, Ub-Rhodamine cleavage fluorescence; further: nearly all actives have a fitted effect of over 60% in size
Text: Deubiquitinating enzymes (DUBs) are a class of enzymes that can cleave isopeptide bond formed between the C-terminal carboxylate of ubiquitin and a lysine side-chain amino group on the target protein. Among them, ubiquitin specific proteases (USPs) constitute the largest DUB family. Human USPs are emerging as promising targets for pharmacological intervention because of their connection to a number of human diseases, including prostate, colon and breast cancer (1, 2), pediatric acute lymphoblastic leukemia (3), and familial cylindromatosis (4). The advantage of inhibiting USPs lies in the potential specificity of therapeutic intervention that can lead to better efficacy and reduce nonspecific side effects. In a collaboration between the University of Delaware and the NIH Chemical Genomics Center, a high-throughput screen assay was developed to screen for USP1/UAF1 inhibitors. This miniaturized assay has a fluorescent read-out and is used to screen the NIH Molecular Libraries Small Molecule Repository (MLSMR) in order to identify a small molecule that inhibits USP1. NIH Chemical Genomics Center [NCGC] NIH Molecular Libraries Probe Centers Network [MLPCN] MLPCN Grant: DA030552 Assay Submitter (PI): Zhihao Zhuang, University of Delaware 1. Priolo, C., et al. (2006) The isopeptidase USP2a protects human prostate cancer from apoptosis. Cancer Res 66, 8625-8632 2. Popov, N., et al. (2007) The ubiquitin-specific protease USP28 is required for MYC stability. Nat Cell Biol 9, 765-774 3. De Pitta, C., et al. (2005) A leukemia-enriched cDNA microarray platform identifies new transcripts with relevance to the biology of pediatric acute lymphoblastic leukemia. Haematologica 90, 890-898 4. Kovalenko, A., et al. (2003) The tumour suppressor CYLD negatively regulates NF-kappaB signalling by deubiquitination. Nature 424, 801-805
3 microliters of reagents (buffer in columns 3 and 4 as negative control and 1nM USP1/UAF1 complex in columns 1, 2, and 5-48) are dispensed into Greiner black solid bottom 1536-well assay plates. Compounds are then transferred via Kalypsys pin tool equipped with 1536-pin array (10nl slotted pins, V&P Scientific, San Diego, CA). Following an incubation step of 15 min at room temperature, 1ul of Ub-Rho substrate (150nM final concentration) is added to initiate the reaction. The plates are immediately centrifuged at 1000 rpm for 15 seconds, and subsequently transferred to a ViewLux high-throughput CCD imager (PerkinElmer) wherein kinetic measurements of fluorescence are acquired using 480 nm excitation/540 nm emission filter set (6 reads every 60 seconds, see Table 1). All reagents are diluted in an assay buffer consisting of 50mM HEPES (pH 7.8), 0.5mM EDTA, 0.1 mg/ml BSA, 1mM TCEP, and 0.01% Tween-20.
Potency means the concentration at half of the fitted maximal effect.

Chains of the proteins cited; added tags and fusions are not shown. Lines headed by an entry give the natural chain unless they say otherwise; changes in a name come on top.
UniProt O94782: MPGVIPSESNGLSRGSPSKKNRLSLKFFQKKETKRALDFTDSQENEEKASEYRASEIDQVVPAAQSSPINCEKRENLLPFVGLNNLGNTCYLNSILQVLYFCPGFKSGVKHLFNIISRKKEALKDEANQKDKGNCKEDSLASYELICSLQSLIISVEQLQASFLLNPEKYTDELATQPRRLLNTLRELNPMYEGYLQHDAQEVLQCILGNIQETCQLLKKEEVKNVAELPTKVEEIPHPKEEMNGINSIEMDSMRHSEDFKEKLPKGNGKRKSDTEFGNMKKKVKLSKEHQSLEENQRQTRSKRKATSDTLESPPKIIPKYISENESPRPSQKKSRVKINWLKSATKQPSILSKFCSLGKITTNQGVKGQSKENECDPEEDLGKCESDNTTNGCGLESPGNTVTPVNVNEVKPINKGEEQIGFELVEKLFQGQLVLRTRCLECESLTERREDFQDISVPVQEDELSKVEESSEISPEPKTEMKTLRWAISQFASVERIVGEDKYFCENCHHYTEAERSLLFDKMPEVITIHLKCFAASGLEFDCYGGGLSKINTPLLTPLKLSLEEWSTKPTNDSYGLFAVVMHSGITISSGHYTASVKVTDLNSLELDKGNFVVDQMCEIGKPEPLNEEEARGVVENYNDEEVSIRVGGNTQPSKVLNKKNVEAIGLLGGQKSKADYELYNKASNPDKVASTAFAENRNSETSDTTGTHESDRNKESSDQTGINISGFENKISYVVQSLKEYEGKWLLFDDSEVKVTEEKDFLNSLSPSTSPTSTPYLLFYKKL

**Q.** `Nc1cccc2c([As](=O)(O)O)cccc12` was tested. Which Potency did it give?
**A.** inconclusive: 31.6 µM

**Q.** How did the Potency turn out when `COP1(=S)c2c(C)nn(CCC#N)c2N=C(c2ccc(F)cc2)N1C` (stereo unspecified) was run?
**A.** inconclusive: 3.98 µM

**Q.** How did the Potency turn out when `O=C(OC1CN2CCC1CC2)c1cccc2[nH]cnc12` (stereo unspecified) was run?
**A.** inconclusive: 44.7 µM

**Q.** With `O=P1(N(CCCl)CCCl)Nc2ccccc2N1` as the compound, how does the Potency read?
**A.** inconclusive: 35.5 µM

**Q.** With `CC(C)CC(=O)NC(Sc1ccc(Cl)cc1)C(Cl)(Cl)Cl` (stereo unspecified) as the compound, how does the Potency read?
**A.** inconclusive: 28.2 µM

**Q.** For `CCc1nc2c(n1)c1c(non1O)c1c2no[n+]1[O-]`, which Potency is on record?
**A.** inconclusive: 28.2 µM
